Data from US11518783B2, “Peptides having tetrahedral mimicking groups as inhibitors of rhomboid proteases” (priority 2016, dated 2022).

Chains of the proteins cited; added tags and fusions are not shown. Lines headed by an entry give the natural chain unless they say otherwise; changes in a name come on top.
UniProt P09391: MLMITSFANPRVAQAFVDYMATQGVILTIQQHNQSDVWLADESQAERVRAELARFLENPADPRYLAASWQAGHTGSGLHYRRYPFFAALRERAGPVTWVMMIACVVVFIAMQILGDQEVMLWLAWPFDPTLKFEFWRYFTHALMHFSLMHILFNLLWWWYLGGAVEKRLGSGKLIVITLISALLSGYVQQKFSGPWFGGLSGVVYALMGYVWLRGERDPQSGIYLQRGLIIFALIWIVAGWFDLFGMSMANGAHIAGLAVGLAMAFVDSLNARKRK

Biological target: GlpG (Escherichia coli, UniProt P09391)
Details: living E. coli cells, liquid culture, no preincubation

Ac-VRMA-B(OH)2
EC50 for inhibition of endogenous GlpG in E. coli cells: sub-micro molar
